The target in the assay is human PRC2 complex (Homo sapiens, UniProt O75530+Q15022+Q15910, DEL183-210). As to the kind of experiment: Fluorescence anisotropy displacement titrations with unlabelled peptides. Particulars: presence of SAM; versus H3K27M. It is filed as binding. Set-up: containing EZH2 (residues 421–746) and SUZ12 (residues 535–685), each with an N-terminal GST tag; contained EED (residues 77–441) and EZH2 (residues 1–385); GST (PreScission 3C site) (N, cleaved yes); His-tag (thrombin site) (N, cleaved yes); made in house; host or cells: Escherichia coli BL21 (λDE3).

By UniProt entry, the sequences of proteins in these tests, tags left out. Chains listed by the source or under a name are the forms on record and can include a tag or linker. Residues count along the entry.
UniProt O75530, 77-441 partner limits assumed: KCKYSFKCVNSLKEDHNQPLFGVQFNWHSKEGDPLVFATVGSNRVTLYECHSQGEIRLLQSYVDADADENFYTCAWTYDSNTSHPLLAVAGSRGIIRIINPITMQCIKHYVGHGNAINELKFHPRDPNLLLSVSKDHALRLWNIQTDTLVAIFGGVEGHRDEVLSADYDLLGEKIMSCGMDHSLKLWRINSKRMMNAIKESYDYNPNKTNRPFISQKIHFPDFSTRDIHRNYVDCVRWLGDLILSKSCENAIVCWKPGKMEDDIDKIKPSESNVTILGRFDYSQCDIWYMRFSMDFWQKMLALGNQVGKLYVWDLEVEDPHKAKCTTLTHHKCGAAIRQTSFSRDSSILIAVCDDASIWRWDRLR
UniProt Q15022, 535-685 partner limits assumed: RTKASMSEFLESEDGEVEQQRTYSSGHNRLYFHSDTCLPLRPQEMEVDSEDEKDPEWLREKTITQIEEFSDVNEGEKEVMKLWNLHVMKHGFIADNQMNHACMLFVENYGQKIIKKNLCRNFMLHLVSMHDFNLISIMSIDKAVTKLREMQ
UniProt Q15910, 421-746 limits assumed, stated change not applied: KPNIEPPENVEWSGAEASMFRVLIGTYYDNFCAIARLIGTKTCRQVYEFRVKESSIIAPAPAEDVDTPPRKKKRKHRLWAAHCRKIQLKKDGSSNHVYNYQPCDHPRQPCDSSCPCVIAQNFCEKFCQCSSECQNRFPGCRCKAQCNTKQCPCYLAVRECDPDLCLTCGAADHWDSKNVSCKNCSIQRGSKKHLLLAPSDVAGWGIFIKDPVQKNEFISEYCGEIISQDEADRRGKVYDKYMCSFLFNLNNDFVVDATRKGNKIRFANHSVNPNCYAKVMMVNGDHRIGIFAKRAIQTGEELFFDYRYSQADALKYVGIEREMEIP
UniProt Q15910, with tags, fused parts or gaps DEL183-210 limits assumed: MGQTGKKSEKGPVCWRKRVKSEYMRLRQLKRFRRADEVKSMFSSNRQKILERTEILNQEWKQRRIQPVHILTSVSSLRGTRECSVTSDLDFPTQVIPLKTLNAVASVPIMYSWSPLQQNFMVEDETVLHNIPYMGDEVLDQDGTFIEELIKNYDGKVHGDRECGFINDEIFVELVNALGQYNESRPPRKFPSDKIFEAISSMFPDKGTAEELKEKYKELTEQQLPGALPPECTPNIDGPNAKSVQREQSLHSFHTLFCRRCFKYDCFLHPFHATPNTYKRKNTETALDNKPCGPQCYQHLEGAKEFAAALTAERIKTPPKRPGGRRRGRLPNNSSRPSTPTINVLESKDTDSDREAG

Molecules are shown by their SMILES.

Take `CSCC[C@H](NC(=O)[C@H](C)NC(=O)[C@H](C)NC(=O)[C@H](C)NC(=O)[C@H](CCCCN)NC(=O)[C@@H](N)[C@@H](C)O)C(=O)N[C@@H](CO)C(=O)N[C@@H](C)C(=O)N1CCC[C@H]1C(=O)N[C@@H](C)C(=O)N[C@H](C(=O)NCC(=O)NCC(=O)N[C@H](C(=O)N[C@@H](CCCCN)C(=O)N[C@@H](CCCCN)C(=O)N1CCC[C@H]1C(=O)N[C@@H](Cc1c[nH]cn1)C(=O)N[C@@H](CCCNC(=N)N)C(=O)N[C@@H](Cc1ccc(O)cc1)C(=O)N[C@@H](CCCNC(=N)N)C(=O)O)C(C)C)[C@@H](C)O` [H3R26AK27M]: the “fold weaker binding when Arg26 is substituted with Ala” value is listed as 22 fold.

(Values after article PMC4853476 (Nature Communications, 2016).)
